# Data: patent US20060052301A1, “Splice variants of peptide YY, neuropeptide Y, pancreatic peptide Y and Amylin, and uses thereof” (priority 2004, published 2006)
# Experiment: In-vitro stability study in acetate buffer (Alzet pump model, HPLC)
# Assay type: physicochemical
# Conditions: 20 mM acetate buffer pH 4.0, 37° C., 28 days
# Method: The stability of sterile PYY[3-36] and PYY variant peptide solutions was tested in Alzet pump model during 28 days of incubation at 37° C. (Alzet in-vitro protocol, DURECT Corporation, Calif., USA) following the analysis of the solutions by HPLC. In order to treat ob/ob mice with PYY variants by continuous infusion, the peptides must be soluble and the solution must be stable during the treatment period.
# In the present study, much better stability was achieved when the peptides were dissolved in 20 mM acetate buffer at pH 4.0. Both the WT PYY[3-36] and the PYY variant of the present invention were analyzed in the in-vitro stability studies using two dosages as follows: the low dose of PYY[3-36] was 3.3 mg/ml; the low dose of PYY variant was 3.9 mg/ml; the high dose of PYY[3-36] was 10.6 mg/ml; the high dose of PYY variant was 12.8 mg/ml. In all the cases 2 or 3 different experiments were carried out.
substance,measurement,setting,value
"PYY[3-36]: known wild type Peptide YY form [3-36], SEQ ID NO:67, protease cleavage product of PYY [reference compound]",Purity (%) (average ± stdev),high dose (PYY[3-36] 10.6 mg/ml; PYY variant [3-42] 12.8 mg/ml),85.8 ± 0.1%
same,Purity (%) (average ± stdev),low dose (PYY[3-36] 3.3 mg/ml; PYY variant [3-42] 3.9 mg/ml),86.6 ± 0.02%
